Membrane permeability of cyclic peptides

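Lipid, pH, incubation time, direction and concentration are not recorded in the data file. The list need not hold all peptides of the study. Peptides that the database sets to -10, its floor, are left out.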

PAMPA measures passive passage through an artificial lipid membrane. P is given in units of 10^-6 cm/s (from log10 values with two decimals); larger means faster passage.

compound	PAMPA (10^-6 cm/s)
CC(C)C[C@@H]1NC(=O)[C@H](C)N(C)C(=O)[C@@H]2CCCN2C(=O)[C@H](Cc2ccccc2)NC(=O)[C@@H](CC(C)C)N(C)C(=O)[C@@H]2CCCN2C(=O)CN(Cc2ccccc2)C1=O	0.91
CC(C)C[C@@H]1C(=O)N[C@H](CC(C)C)C(=O)N2CCC[C@H]2C(=O)N(Cc2ccccc2)CC(=O)N[C@@H](Cc2ccccc2)C(=O)N(C)[C@H](C)C(=O)N1C	11
CC(C)C[C@@H]1C(=O)N[C@@H](Cc2ccccc2)CC(=O)N2CCC[C@@H]2C(=O)N[C@H](CC(C)C)C(=O)N[C@@H](Cc2ccccc2)C(=O)N2CCC[C@H]2C(=O)N(C)[C@H](C)C(=O)N1C	0.91
CC(C)C[C@@H]1NC(=O)[C@@H]2CCCN2C(=O)[C@@H](CC(C)C)N(C)C(=O)[C@H](CC(C)C)N(C)C(=O)[C@@H](C)N(C)C(=O)[C@@H]2CCCN2C(=O)[C@H](Cc2ccccc2)NC1=O	1.3
CC(C)C[C@@H]1C(=O)N(C)[C@H](CC(C)C)C(=O)N2CCC[C@H]2C(=O)N[C@H](CC(C)C)C(=O)N[C@@H](Cc2ccccc2)C(=O)N2CCC[C@H]2C(=O)N[C@@H](C)C(=O)N1C	2
CC(C)C[C@@H]1NC(=O)[C@H]2CCCN2C(=O)[C@H](CC(C)C)N(C)C(=O)[C@@H](CC(C)C)N(C)C(=O)[C@@H](C)N(C)C(=O)[C@H](Cc2ccccc2)NC1=O	2.8
CC(C)C[C@@H]1NC(=O)C[C@H](Cc2ccccc2)NC(=O)[C@H](Cc2ccccc2)NC(=O)[C@@H](CC(C)C)NC(=O)[C@@H]2CCCN2C(=O)[C@@H](CC(C)C)NC1=O	2.8
CC(C)C[C@@H]1C(=O)N[C@@H](Cc2ccccc2)C(=O)N2CCC[C@H]2C(=O)N(C)[C@H](C)C(=O)N(C)[C@@H](CC(C)C)C(=O)N(Cc2ccccc2)CC(=O)N2CCC[C@H]2C(=O)N1C	2.3
CC(C)C[C@@H]1NC(=O)[C@@H]2CCCN2C(=O)C[C@H](Cc2ccccc2)NC(=O)[C@@H](CC(C)C)N(C)C(=O)[C@H](C)NC(=O)[C@@H]2CCCN2C(=O)[C@H](Cc2ccccc2)NC1=O	0.49
CC(C)C[C@H]1NC(=O)[C@@H]2CCCN2C(=O)[C@H](CC(C)C)N(C)C(=O)[C@@H](CC(C)C)NC(=O)[C@H](C)N(C)C(=O)[C@@H]2CCCN2C(=O)[C@H](Cc2ccccc2)NC1=O	0.42
CCCN1CC(=O)N[C@@H](CC(C)C)C(=O)N(C)[C@@H](CC(C)C)C(=O)N2CCC[C@@H]2C(=O)N[C@H](CC(C)C)C(=O)N[C@@H](Cc2ccccc2)C1=O	2.1
CC(C)C[C@H]1NC(=O)[C@H](C)N(C)C(=O)[C@H](Cc2ccccc2)NC(=O)[C@H](CC(C)C)N(C)C(=O)[C@H]2CCCN2C(=O)C[C@H](Cc2ccccc2)NC1=O	6.8
CC(C)C[C@@H]1NC(=O)[C@H](C)N(C)C(=O)[C@@H]2CCCN2C(=O)[C@H](Cc2ccccc2)NC(=O)CN(Cc2ccccc2)C(=O)[C@H]2CCCN2C(=O)[C@@H](CC(C)C)N(C)C1=O	1.9
CC(C)C[C@@H]1NC(=O)[C@H](C)N(C)C(=O)[C@H]2CCCN2C(=O)[C@H](Cc2ccccc2)NC(=O)CN(Cc2ccccc2)C(=O)[C@@H]2CCCN2C(=O)[C@@H](CC(C)C)NC1=O	3.2
CC(C)C[C@@H]1C(=O)N(Cc2ccccc2)CC(=O)N2CCC[C@H]2C(=O)N(Cc2ccccc2)CC(=O)N[C@@H](Cc2ccccc2)C(=O)N2CCC[C@@H]2C(=O)N(C)[C@H](C)C(=O)N1C	1.4
CCCN1CC(=O)N(C)[C@H](CC(C)C)C(=O)N[C@@H](CC(C)C)C(=O)N2CCC[C@H]2C(=O)N(C)[C@H](CC(C)C)C(=O)N[C@@H](Cc2ccccc2)C(=O)N2CCC[C@H]2C1=O	5
CC(C)C[C@@H]1C(=O)N[C@@H](Cc2ccccc2)C(=O)N[C@H](C)C(=O)N(C)[C@H](CC(C)C)C(=O)N[C@H](CC(C)C)C(=O)N2CCC[C@@H]2C(=O)N1C	3.7
CC(C)C[C@@H]1C(=O)N2CCC[C@H]2C(=O)N(Cc2ccccc2)CC(=O)N[C@@H](Cc2ccccc2)C(=O)N2CCC[C@@H]2C(=O)N[C@@H](C)C(=O)N[C@H](CC(C)C)C(=O)N1C	1.2
CC(C)C[C@@H]1C(=O)N(Cc2ccccc2)CC(=O)N2CCC[C@@H]2C(=O)N[C@H](CC(C)C)C(=O)N[C@@H](Cc2ccccc2)C(=O)N(C)[C@H](C)C(=O)N1C	5.5

Extract of 2 entries:

compound	PAMPA (10^-6 cm/s)
CC(C)C[C@@H]1NC(=O)[C@@H]2CCCN2C(=O)C[C@H](Cc2ccccc2)NC(=O)[C@@H](CC(C)C)N(C)C(=O)[C@H](C)NC(=O)[C@@H]2CCCN2C(=O)[C@H](Cc2ccccc2)NC1=O	0.49
CC(C)C[C@@H]1C(=O)N2CCC[C@H]2C(=O)N(Cc2ccccc2)CC(=O)N[C@@H](Cc2ccccc2)C(=O)N2CCC[C@@H]2C(=O)N[C@@H](C)C(=O)N[C@H](CC(C)C)C(=O)N1C	1.2

Data: CycPeptMPDB; original report Townsend et al. 2020, doi:10.26434/chemrxiv.13335941.v1.